The numbers were not newly measured in patent publication US20090214464A1, “COMPOUNDS FOR FLAVIVIRIDAE TREATMENT” (priority 2004, published 2009), which cites them from elsewhere.

The test system of this series is HCV. The settings on record: human, in vivo; cited from earlier work.

SMILES strings stand for the structures.

For `NC(=O)c1ncn([C@@H]2O[C@H](CO)[C@@H](O)[C@H]2O)n1` [Ribavirin, 1-β-D-ribofuranosyl-1-1,2,4-triazole-3-caroxamide], the toxicity entry is “induce anemia”.
